# Experimental data as given in PubChem BioAssay AID686979 (National Center for Advancing Translational Sciences (NCATS), 2013).
# This is a selection; strong and weak results do not stand in their true shares. Results filed as inconclusive are left out. The source made the active and inactive calls. Calls come from the whole dose curve; as a rule, active = well fitted inhibition curve with a large enough effect; inconclusive = small, poorly fitted or top-dose-only effect; inactive = flat fitted curve, though single readings scatter.
# Test: qHTS for Inhibitors of human tyrosyl-DNA phosphodiesterase 1 (TDP1): qHTS in cells in presence of CPT; note: nearly all actives have a fitted effect of over 55% in size
# Settings: chicken DT40 Tdp1-/-;hTDP1 cells + 20 nM CPT, ATP luminescence, 48 h; series mostly up to 46.2 µM; activity change, negative = growth inhibition: at the top concentration
# % is set by controls: 0 for no effect and ±100 for the full control effect; potency is the fitted concentration of half-maximal effect.
Compound,"activity change, negative = growth inhibition",Potency
Nc1ccc2c(ccc3cccnc32)n1.O=[N+]([O-])c1cc([N+](=O)[O-])c(O)c([N+](=O)[O-])c1,inactive: -29.5%,–
CCOC(=O)c1ccc(NP(C)(=O)Oc2ccc(Cl)cc2)cc1 (stereo not given),inactive: -25.1%,–
CC(C)OP(=O)(F)OC(C)C,inactive: -3.92%,–
COc1ccc(OP(C)(=O)Nc2ccc(Br)cc2)cc1 (stereo not given),inactive: -13%,–
CCc1ccc(OP(C)(=O)Nc2cccnc2)cc1 (stereo not given),inactive: -19.9%,–
CP(=O)(Oc1ccccc1)N1CCOC1=O (stereo not given),inactive: -1.39%,–
O=C(OCCCN1CCCC1)C(O)(c1ccccc1)C1CCCCC1 (stereo not given),inactive: -13.7%,–
OCCSCCO,inactive: 11.3%,–
COc1ccccc1OP(C)(=O)Nc1c(C)n(C)n(-c2ccccc2)c1=O (stereo not given),inactive: 9.98%,–
CP(=O)(Nc1ccc(Cl)cc1)Oc1ccc(F)cc1 (stereo not given),inactive: -14.9%,–
COc1ccccc1OP(C)(=O)Nc1ccccc1Br (stereo not given),inactive: -12.8%,–
CC(C)(C)c1ccc(OP(C)(=O)O)cc1,inactive: 10.9%,–
CN(C)C(=O)c1c([N+](=O)[O-])cc([N+](=O)[O-])cc1[N+](=O)[O-],–,active: 2.59 µM
COc1ccccc1OP(C)(=O)Nc1ccc(Br)cc1 (stereo not given),inactive: -18.1%,–
CN(C)CCOC(=O)C(O)(c1ccccc1)C1CCCC1 (stereo not given),inactive: -18.1%,–
COc1ccc(OP(C)(=O)Nc2ccccn2)cc1 (stereo not given),inactive: -3.03%,–
Cc1c(NP(C)(=O)Oc2ccc(C(C)C)cc2)c(=O)n(-c2ccccc2)n1C (stereo not given),inactive: -7.99%,–
O=[N+]([O-])c1cc([N+](=O)[O-])c(Nc2ccccn2)c([N+](=O)[O-])c1,–,active: 2.31 µM
CCc1ccc(OP(C)(=O)O)cc1,inactive: -8.38%,–
COc1ccccc1OP(C)(=O)Nc1ccc(C)cc1C (stereo not given),inactive: -9.57%,–
CP(=O)(Nc1ccccn1)Oc1ccccc1 (stereo not given),inactive: -13.3%,–
Cc1cc(C)cc(OP(C)(=O)Nc2cccc(C(F)(F)F)c2)c1 (stereo not given),inactive: 0.536%,–

Compound,"activity change, negative = growth inhibition",Potency
COc1ccc(OP(C)(=O)Nc2ccccc2Br)cc1 (stereo not given),inactive: -16.1%,–
COc1ccccc1OP(C)(=O)Nc1ccc(C)c(C)c1 (stereo not given),inactive: -11.2%,–
CP(=O)(Nc1ccc(Cl)cc1Cl)Oc1ccccc1 (stereo not given),inactive: 10.9%,–
CCCCCCCCCCCCCCCC1C[N+](C)(C)CCOP(C)(=O)O1 (stereo not given),–,active: 14.6 µM
CP(=O)(OCCOc1ccccc1)OCCOc1ccccc1,inactive: -20.8%,–
Cc1cccc([N+](=O)[O-])c1[N+](=O)[O-],inactive: -10.2% [at 92.5 µM],–
COc1ccc(OP(C)(=O)Nc2ccc(SC(F)(F)F)cc2)cc1 (stereo not given),–,active: 16.4 µM
CCOC(=O)c1ccc(NP(C)(=O)Oc2ccc(F)cc2)cc1 (stereo not given),inactive: -16%,–
CCN(CC)CCCOC(=O)C(O)(c1ccccc1)C1CCCCC1 (stereo not given),inactive: -5.67%,–
Cc1c([N+](=O)[O-])cc([N+](=O)[O-])c(Br)c1[N+](=O)[O-],–,active: 6.51 µM
CP(=O)(Nc1ccccc1)Oc1ccc(F)cc1 (stereo not given),inactive: -6.38%,–
CP(=O)(Nc1ccccc1F)Oc1ccccc1 (stereo not given),inactive: 2.31%,–
O=C(OCCN1CCN(CCOCc2ccccc2)CC1)C(O)(c1ccccc1)c1ccccc1,inactive: -22.8%,–
CCOP(=O)(CC)Oc1ccc([N+](=O)[O-])cc1 (stereo not given),inactive: -16.4%,–
CCOP(C)(=S)SCC(=O)NC(C)(CC)C(=O)O (stereo not given),inactive: -10.9%,–
CP(=O)(Nc1ccc2c(c1)OCCO2)Oc1ccccc1 (stereo not given),inactive: -23.6%,–
O=[N+]([O-])c1cc([N+](=O)[O-])c(C(F)(F)F)c([N+](=O)[O-])c1O,inactive: -4.24%,–
Cc1ccccc1NP(C)(=O)Nc1ccccc1C,inactive: 1.58%,–
CCN(CCCl)Cc1ccccc1C,inactive: -24.9%,–
COc1ccc(OP(C)(=O)Nc2cccc(Br)c2)cc1 (stereo not given),inactive: -16.5%,–
COc1ccc(NP(C)(=O)Oc2ccccc2OC)cc1 (stereo not given),–,active: 11.6 µM
CN(C)CCOC(=O)C(O)(c1ccccc1)C1CCCCC1 (stereo not given),inactive: -10.1%,–

Compound,"activity change, negative = growth inhibition",Potency
O=[N+]([O-])c1ccc(OP2(=O)COCCO2)cc1 (stereo not given),inactive: 3.05%,–
Cc1c(C(c2ccc3c(c2)OCO3)c2c(C)n(C)n(-c3ccccc3)c2=O)c(=O)n(-c2ccccc2)n1C.O=[N+]([O-])c1cc([N+](=O)[O-])c(O)c([N+](=O)[O-])c1,inactive: 6.98%,–
CC1CCOC(=O)C=CC=CC(=O)OC2CC3OC4C5OC5(C)CCC4(COC(=O)C1O)C2(C)C31CO1 (stereo not given),–,active: 0.082 µM
CN1CCCCC1COC(=O)C1(O)c2ccccc2CCc2ccccc21 (stereo not given),inactive: -23%,–
COc1ccccc1OP(C)(=O)Nc1c(C)cccc1C (stereo not given),inactive: -3.1%,–
CCCOc1ccc(NP(C)(=O)Oc2ccc(Cl)cc2)cc1 (stereo not given),inactive: 3.64%,–
COc1ccc(-c2ccccn2)cc1.O=[N+]([O-])c1cc([N+](=O)[O-])c(O)c([N+](=O)[O-])c1,inactive: 21.8%,–
O=[N+]([O-])c1cc([N+](=O)[O-])c(-n2nnc3ccccc32)c([N+](=O)[O-])c1,inactive: -16.7%,–
CC(C)N(CCCl)C(C)C,inactive: -4.27%,–
O=[N+]([O-])c1cc([N+](=O)[O-])c(-c2cnn(-c3ccccc3)c2)c([N+](=O)[O-])c1,–,active: 3.66 µM
Cc1nc2ccc3ccccc3c2s1.O=[N+]([O-])c1cc([N+](=O)[O-])c(O)c([N+](=O)[O-])c1,inactive: -20.7%,–
COc1ccccc1OP(C)(=O)Nc1cccc(Br)c1 (stereo not given),inactive: -14.7%,–
Cc1cc(C)cc(OP(C)(=O)Nc2ccc(C)cc2C)c1 (stereo not given),inactive: -22.4%,–
Cc1cc(C)cc(OP(C)(=O)Nc2ccccn2)c1 (stereo not given),inactive: 3%,–
CP(=O)(Nc1cccc(Br)c1)Oc1ccccc1 (stereo not given),inactive: -26.9%,–
Cc1ccc(C)c(NP(C)(=O)Oc2ccccc2)c1 (stereo not given),inactive: -12.7%,–
O=[N+]([O-])c1cccc([N+](=O)[O-])c1,inactive: -22.2%,–
O=[N+]([O-])OCC(CO[N+](=O)[O-])(CO[N+](=O)[O-])CO[N+](=O)[O-],inactive: 8.56%,–
CC1=NCCc2c1[nH]c1ccccc21.O=[N+]([O-])c1cc([N+](=O)[O-])c(O)c([N+](=O)[O-])c1,inactive: -3.72%,–
O=[N+]([O-])c1cc([N+](=O)[O-])c(Nc2cccnc2)c([N+](=O)[O-])c1,–,active: 23.1 µM
Cc1cccc(C)c1OP(C)(N)=O (stereo not given),inactive: -1.29%,–
O=[N+]([O-])c1ccc2c(c1)C=Nc1ccccc1O2,–,active: 5.17 µM

Compound,"activity change, negative = growth inhibition",Potency
CCOC(=O)c1ccc(NP(C)(=O)Oc2ccccc2)cc1 (stereo not given),inactive: -0.28%,–
Cc1ccc(NP(C)(=O)Oc2ccccc2)c(C)c1 (stereo not given),inactive: -5.44%,–
COc1ccccc1OP(C)(=O)Nc1ccc(C)cc1 (stereo not given),inactive: 0.116%,–
COc1ccc(OP(C)(=O)Nc2cccc(F)c2)cc1 (stereo not given),inactive: -16.4%,–
Cc1cc(C)cc(OP(C)(N)=O)c1 (stereo not given),inactive: 0.168%,–
CCN(CC)CCCOC(=O)C(O)(c1ccccc1)c1ccccc1,inactive: 6.49%,–
COc1ccccc1-c1ccccn1.O=[N+]([O-])c1cc([N+](=O)[O-])c(O)c([N+](=O)[O-])c1,inactive: -24.3%,–
O=[N+]([O-])[O-].[NH4+],inactive: 1.05%,–
CP(=O)(Oc1ccccc1)OC(c1ccccc1)C(F)(F)F (stereo not given),inactive: 10%,–
CP(=O)(NC(=O)Nc1ccccc1)Oc1ccccc1 (stereo not given),inactive: 5.69%,–
CCc1ccc(OP(C)(=O)N2CCN(c3ccc([N+](=O)[O-])cc3)CC2)cc1 (stereo not given),–,active: 16.4 µM
CCOP(C)(=S)SCC(=O)NC(C)C(=O)O (stereo not given),inactive: 0.233%,–
CN(C)CCS,inactive: -27.8%,–
O=[N+]([O-])c1cc([N+](=O)[O-])c(O)c([N+](=O)[O-])c1.c1ccc(Oc2ccncc2)cc1,inactive: 5.31%,–
CCOC(=O)c1ccc(NP(C)(=O)Oc2ccc(OC)cc2)cc1 (stereo not given),inactive: -24%,–
CP(=O)(Nc1ccccn1)Oc1ccc(Cl)cc1 (stereo not given),inactive: -5.48%,–
CP(=S)(Nn1cnnc1)Oc1ccccc1 (stereo not given),inactive: -26.6%,–
COc1ccccc1OP(C)(=O)Nc1ccccc1 (stereo not given),inactive: 3.89%,–
CP(=O)(Nc1ccccc1Br)Oc1ccccc1 (stereo not given),inactive: 32.2%,–
